Results on two compounds are retold here after patent US6413935B1, “Induction of immune response against desired determinants” (priority 1993, dated 2002).

Sequences of proteins named here, by UniProt entry; tags and fusion partners are left off. A change or cut given only in a name is not applied to a line headed by its entry. Residues count along the entry.
UniProt P01903, 26-254: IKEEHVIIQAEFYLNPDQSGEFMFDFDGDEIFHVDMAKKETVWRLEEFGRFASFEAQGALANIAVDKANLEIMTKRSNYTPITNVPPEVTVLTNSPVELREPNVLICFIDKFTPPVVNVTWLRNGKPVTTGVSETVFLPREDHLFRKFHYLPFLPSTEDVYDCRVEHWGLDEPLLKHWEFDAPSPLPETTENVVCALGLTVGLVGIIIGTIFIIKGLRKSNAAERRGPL
UniProt P01911, 30-266 with the stated changes: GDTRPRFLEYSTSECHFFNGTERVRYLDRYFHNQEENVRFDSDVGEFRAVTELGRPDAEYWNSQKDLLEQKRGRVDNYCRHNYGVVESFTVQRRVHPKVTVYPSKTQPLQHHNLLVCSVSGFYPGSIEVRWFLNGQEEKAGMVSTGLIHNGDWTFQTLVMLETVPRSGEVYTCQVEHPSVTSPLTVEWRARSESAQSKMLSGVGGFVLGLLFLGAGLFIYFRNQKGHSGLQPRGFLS

Experiment [1] has as its target DR3 (Homo sapiens, UniProt P01903+P01911, A100K/A102G/A103R/A169T/F55Y/I96L/K41T/L162R/M171V/P40S/Q125H/Q178H/Q39Y/R42S/S66N/T106N/T262R/W38E/Y61H). The experiment in a line: biochemical. To be noted: PADRE Class II Binding Affinities DR3, Table IX.
The subject of experiment [2] is DR7. The conditions noted are these: read-out: PADRE Class II Binding Affinities DR7; Table IX; listed as 965.032.

On to `CC(C)C[C@H](NC(=O)[C@@H](NC(=O)[C@H](CC(N)=O)NC(=O)[C@H](C)NC(=O)[C@H](CCCNC(=N)N)NC(=O)[C@@H](NC(=O)[C@H](CC1CCCCC1)NC(=O)[C@H](CCCNC(=N)N)NC(=O)[C@@H](C)N)C(C)C)[C@@H](C)O)C(=O)N[C@@H](CCCCN)C(=O)N[C@@H](C)C(=O)N[C@@H](C)C(=O)N[C@H](C)C(N)=O` [Peptide 965.06], for which the IC50 in experiment [1] stood at 8.33 µM.

As for `CC(C)C[C@H](NC(=O)[C@@H](NC(=O)[C@H](CC(N)=O)NC(=O)[C@H](C)NC(=O)[C@H](Cc1c[nH]c2ccccc12)NC(=O)[C@@H](NC(=O)[C@H](CC1CCCCC1)NC(=O)[C@H](CCCCN)NC(=O)[C@@H](C)N)C(C)C)[C@@H](C)O)C(=O)N[C@@H](CCCCN)C(=O)N[C@@H](C)C(=O)N[C@@H](C)C(=O)N[C@H](C)C(N)=O` [Peptide 965.031], the IC50 in experiment [2] was found to be 0.347 µM.
